Read-outs that look alike come from different tables or passages of the source.
Columns and labels:
[1] = system: cytochrome c
[2] = system: C2C12 myotubes; details: composite Z-score vs DMSO; Conc 20 μM
[3] = system: cellular dehydrogenase activity; details: composite Z-score vs DMSO; Conc 20 μM
[4] = system: mitochondrial membrane potential; details: composite Z-score vs DMSO; Conc 20 μM
[5] = system: reactive oxygen species; details: composite Z-score vs DMSO; Conc 20 μM
[6] = system: OXPHOS gene expression; details: composite Z-score vs DMSO; Conc 20 μM
[7] = system: nuOXPHOS transcripts; details: composite Z-score vs DMSO; Conc 20 μM
[8] = system: mtOXPHOS transcripts; details: composite Z-score vs DMSO; Conc 20 μM

CNCC(O)c1ccc(O)c(O)c1 (stereo not drawn) [adrenaline]
cyt c [1]: 0.173

ergosterol acetate
Viability [2]: 0.023
MTT [3]: −1.580
ΔΨm [4]: 0.050
ROS [5]: 0.270
GE-HTS [6]: −0.380
nucOX [7]: −0.220
mitoOX [8]: −0.680
cyt c ([1]; composite Z-score vs DMSO, Conc 20 μM): 0.346
